# Assay results taken from PubChem BioAssay AID585 (National Center for Advancing Translational Sciences (NCATS), 2007).
# Chains of the proteins cited; added tags and fusions are not shown.
# UniProt P00811, whole entry: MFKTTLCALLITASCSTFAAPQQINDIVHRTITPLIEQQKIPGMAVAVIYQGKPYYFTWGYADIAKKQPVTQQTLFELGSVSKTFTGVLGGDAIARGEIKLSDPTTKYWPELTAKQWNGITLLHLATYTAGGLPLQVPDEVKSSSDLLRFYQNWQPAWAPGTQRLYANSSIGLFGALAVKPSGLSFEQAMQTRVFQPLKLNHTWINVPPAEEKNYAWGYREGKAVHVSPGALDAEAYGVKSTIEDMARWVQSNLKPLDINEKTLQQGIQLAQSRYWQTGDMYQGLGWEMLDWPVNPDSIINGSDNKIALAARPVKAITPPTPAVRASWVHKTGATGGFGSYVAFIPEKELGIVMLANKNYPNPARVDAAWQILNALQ
# This is a selection; strong and weak results do not stand in their true shares. Some tests of the compounds listed are not included; inactive here does not mean inactive elsewhere. The source made the active and inactive calls. Calls come from the whole dose curve.
# Target: Beta-lactamase (Escherichia coli (strain K12)) (UniProt P00811)
# Experiment: Promiscuous and Specific Inhibitors of AmpC Beta-Lactamase (assay without detergent); note: % of control where 0% means no effect
# Details: AmpC nitrocefin hydrolysis, absorbance 480 nm, no detergent; at 5.75 µM unless noted
# Method: NIH Molecular Libraries Screening Centers Network [MLSCN]
# NIH Chemical Genomics Center [NCGC]
# PI Name: Shoichet, Brian K.
# This aggregation profiling approach exploits the sensitivity of aggregate formation to detergent. Inhibition of b-lactamase is measured in the presence and absence of 0.01% Triton X-100. See Pubchem assay "Promiscuous and Specific Inhibitors of AmpC Beta-Lactamase (assay with detergent)" for related screen. Compounds that inhibit only in the absence of detergent are considered likely promiscuous aggregators.
# A screen of 1,030 compounds was performed in Brian Shoichet's lab in 96-well format. AmpC activity was measured by following the absorbance at 480 nm. Nitrocefin is a chromogenic substrate: while nitrocefin is yellow (lmax 390 nm), the product of its hydrolysis is red (lmax 486 nm, 17,000 M-1). AmpC beta lactamase was provided by Brian Shoichet and Brian Feng, UCSF.
# NCGC Assay Protocol Summary:
# 20 mM phosphate buffer, pH 7.0
# Triton X-100: No Detergent screen: 0.0001%, Detergent screen: 0.01%.
# Buffer in columns 3 and 4 as negative control (no enzyme).
# 5.3 nM AmpC in columns 1, 2, 5-48. Titration of UCSF compound 9 control (from 10 mM, then 1:2) pin-transferred to column 2. Column 1 is neutral (100% activity).
# Six uL of reagents were dispensed to 1536-well Greiner black clear bottom plates. Compounds and controls (23 nL) were transferred via Kalypsys PinTool. The plates were incubated for 15 min at room temperature, and then 2 uL of 800 uM solution of nitrocefin was added to start the reaction. The plates were immediately transferred to and read every 20 seconds for 4 min on ViewLux (Perkin-Elmer) High-throughput CCD imager using 480 nm absorbance protocol. During dispense, reagent bottles were kept submerged into 4 deg C water bath.
# Keywords: NIH Roadmap, MLSCN, MLI, MLSMR, qHTS, NCGC, AmpC Beta-Lactamase, Aggregation.
row,Structure (SMILES),"activity change, negative = inhibition"
1,CN(C)c1cccc(C(=O)NCC2(N(C)C)CCCCC2)c1,inactive: -5% [at 28.7 µM]
2,O=C(OC1CN2CCC1CC2)C(CO)(c1ccccc1)c1ccccc1 (stereo not given),inactive: 47.3% [at 28.7 µM]
3,CN1CC[C@H](OC(=O)[C@](O)(c2ccccc2)C2CCCC2)C1,inactive: 0.6%
4,CN1CCC[C@H](OC(=O)[C@](O)(c2ccccc2)C2CCCC2)C1,inactive: 3.6%
5,C=C(C)C#C[C@@](O)(C(=O)OC1CCN(C)CC1)c1ccccc1,inactive: 4.3%
